The numbers were not newly measured in publication PMC3439991, “Reversible Crystallization of Argatroban after Subcutaneous Application in Pigs” (Thrombosis, 2012), which cites them from elsewhere.

Molecules are shown by their SMILES.

In general, Ki refers to the dissociation constant of the complex between target and ligand, obtained from inhibition or displacement.

The data set deals with thrombin. Also on record: method as in PMID 9469622, PMID 11994559. The conditions noted are these: catalytic site of thrombin; cited from earlier work.

`CC1CNc2c(cccc2S(=O)(=O)N[C@@H](CCCNC(=N)N)C(=O)N2CC[C@@H](C)C[C@@H]2C(=O)O)C1` (stereo partly shown) [Argatroban]: the Ki was 0.039 µM.
